Results published in BindingDB's records for US8846929.

Tests used:
Experiment in all cases: Radioligand Binding Assay
Conditions in all cases: pH 7.4
[1] = target: Kappa-type opioid receptor (Homo sapiens, UniProt P41145)
[2] = target: Mu-type opioid receptor (Homo sapiens, UniProt P35372)
[3] = target: Nociceptin receptor (Homo sapiens, UniProt P41146)
[4] = target: Delta-type opioid receptor (Homo sapiens, UniProt P41143)

Row | SMILES | Ki [1] | Ki [2] | Ki [3] | Ki [4]
1 | O=C(NC(Cc1ccccc1)C(=O)O)c1nc2ccccc2n([C@H]2C[C@H]3CC[C@@H](C2)N3C2CCCCCCC2)c1=O (stereo partly specified) | 49.7 nM | – | – | –
2 | O=C(O)C1(O)CCN(c2nc3ccccc3n([C@H]3C[C@H]4CC[C@@H](C3)N4C3CCCCCCC3)c2=O)C1 (stereo partly specified) | 1650 nM | – | – | –
3 | CC(C)(C)OC(=O)N1CC2CN(c3nc4ccccc4n(C4CCN(C5CCCCCCC5)CC4)c3=O)CC2C1 (stereo unspecified) | 136 nM | – | – | –
4 | O=C(O)[C@@H](CO)Nc1nc2ccccc2n([C@H]2C[C@H]3CC[C@@H](C2)N3C2CCCCCCC2)c1=O | – | 770 nM | – | –
5 | O=C(NC(Cc1c[nH]cn1)C(=O)O)c1nc2ccccc2n([C@H]2C[C@H]3CC[C@@H](C2)N3C2CCCCCCC2)c1=O (stereo partly specified) | 130 nM | 368 nM | 33.5 nM | –
6 | O=C(O)c1nc2ccccc2n(C2CCN(C3CCCCCCC3)CC2)c1=O | 1030 nM | – | – | –
7 | CS(=O)(=O)NCCNc1nc2ccccc2n(C2CCN(C3CCCCCCC3)CC2)c1=O | 905 nM | – | – | 44100 nM
8 | CCOC(=O)c1nc2ccccc2n([C@H]2C[C@H]3CCC[C@@H](C2)N3C2CCCCCCC2)c1=O | 46.3 nM | – | – | –
9 | O=c1c(N2CC3CNCC3C2)nc2ncccc2n1C1CCN(C2CCCCCCC2)CC1 (stereo unspecified) | 130 nM | 196 nM | – | 29200 nM
10 | NC(=O)CN(CCNc1nc2ccccc2n([C@H]2C[C@H]3CC[C@@H](C2)N3C2CCCCCCC2)c1=O)CC(=O)O | – | – | 16.8 nM | –
11 | O=C1CN(C2CCN(C3CCCCCCC3)CC2)c2ccccc2N1 | – | – | – | 9670 nM
12 | CCOC(=O)c1nc2ccccc2n([C@H]2C[C@H]3COC[C@@H](C2)N3C2CCCCCCC2)c1=O | – | – | 911 nM | –
13 | O=C(O)C1CCN(CCNc2nc3ccccc3n([C@H]3C[C@H]4CC[C@@H](C3)N4C3CCCCCCC3)c2=O)CC1 | – | – | 34.7 nM | –
14 | N#CNC(=O)c1nc2ccccc2n(C2CCN(C3CCCCCCC3)CC2)c1=O | – | – | 273 nM | –
15 | O=C(O)CC1CCN(c2nc3ccccc3n([C@H]3C[C@H]4CC[C@@H](C3)N4C3CCCCCCC3)c2=O)C1 (stereo partly specified) | 1200 nM | – | – | –
16 | O=C(O)[C@H](CO)Nc1nc2ccccc2n([C@@H]2C[C@H]3CC[C@@H](C2)N3C2CCCCCCC2)c1=O | – | – | 285 nM | –
17 | CCCC1(N2CCC(n3c(=O)c(C(=O)O)nc4ccccc43)CC2)CCCCCCC1 | – | – | 45.5 nM | –
18 | O=C(O)c1nc2ccccc2n([C@H]2C[C@H]3CCC[C@@H](C2)N3C2CCCCCCCCC2)c1=O | – | – | 1.8 nM | –
19 | O=C(O)[C@H](CO)Nc1nc2ccccc2n(C2CCN(C3CCCCCCC3)CC2)c1=O | 544 nM | – | – | –
20 | O=C(NO)c1nc2ccccc2n([C@H]2C[C@H]3CC[C@@H](C2)N3C2CCCCCCC2)c1=O | – | – | 2.7 nM | –
21 | CCOC(=O)c1nc2ccccc2n([C@H]2C[C@H]3CC[C@@H](C2)N3C2CCCCCCC2)c1=O | – | – | 22.2 nM | –
22 | CC(=O)NC1(C(=O)O)CCN(c2nc3ccccc3n([C@H]3C[C@H]4CC[C@@H](C3)N4C3CCCCCCC3)c2=O)CC1 | 256 nM | – | 158 nM | –
23 | O=C(O)C(=O)N1CC2CN(c3nc4ccccc4n(C4CCN(C5CCCCCCC5)CC4)c3=O)CC2C1 (stereo unspecified) | 488 nM | 2920 nM | – | > 20000 nM
24 | O=c1c(N2CCc3ccccc3C2)nc2ccccc2n1C1CCN(C2CCCCCCC2)CC1 | – | – | 42.3 nM | –
25 | O=C(O)C1CCCN1c1nc2ccccc2n(C2CCN(C3CCCCCCC3)CC2)c1=O (stereo unspecified) | – | – | 309 nM | –

Row | SMILES | Ki [1] | Ki [2] | Ki [3] | Ki [4]
26 | O=C(O)c1nc2ccccc2n([C@H]2C[C@H]3CCC[C@@H](C2)N3C2CCCCCCC2)c1=O | 440 nM | 679 nM | 17.7 nM | –
27 | O=C(O)c1nc2ccccc2n([C@H]2C[C@H]3CCC[C@@H](C2)N3C2C3CCCC2CCC3)c1=O (stereo partly specified) | – | 3430 nM | 8.5 nM | –
28 | CC(=O)N[C@@H]1CCN(c2nc3ccccc3n(C3CCN(C4CCCCCCC4)CC3)c2=O)C1 | 222 nM | – | – | –
29 | CC1(N2CCC(n3c(=O)c(C(=O)O)nc4ccccc43)CC2)CCCCCCC1 | 1120 nM | – | 18.1 nM | –
30 | O=C(O)C1CCN(c2nc3ccccc3n([C@H]3C[C@H]4CC[C@@H](C3)N4C3CCCCCCC3)c2=O)CC1 | – | 1670 nM | – | –
31 | O=C(O)c1nc2ccccc2n([C@H]2C[C@H]3CCC[C@@H](C2)N3C2CCCCCCCC2)c1=O | 375 nM | – | 1.4 nM | –
32 | O=C(O)CNc1nc2ccccc2n(C2CCN(C3CCCCCCC3)CC2)c1=O | – | – | 368 nM | –
33 | O=c1c(N2CC[C@@H](O)C2)nc2ccccc2n1C1CCN(C2CCCCCCC2)CC1 | – | – | – | 35000 nM
34 | NC(=O)C1(N2CCC(n3c(=O)c(N4CC5CNCC5C4)nc4ccccc43)CC2)CCCCCCC1 (stereo unspecified) | – | – | 44.6 nM | –
35 | O=c1ccc(Nc2nc3ccccc3n(C3CCN(C4CCCCCCC4)CC3)c2=O)c[nH]1 | – | – | 46.3 nM | 46700 nM
36 | O=C(O)c1nc2ccccc2n([C@H]2C[C@H]3CCC[C@@H](C2)N3C23CC4CC(CC(C4)C2)C3)c1=O | 5620 nM | – | 47.5 nM | –
37 | O=C(O)CN(CCNc1nc2ccccc2n([C@H]2C[C@H]3CC[C@@H](C2)N3C2CCCCCCC2)c1=O)CC(=O)O | – | 1080 nM | 4.4 nM | –
38 | NC(=O)[C@H](CO)Nc1nc2ccccc2n([C@@H]2C[C@H]3CC[C@@H](C2)N3C2CCCCCCC2)c1=O | 5350 nM | – | – | –
39 | C=CCNc1nc2ccccc2n(C2CCN(C3CCCCCCC3)CC2)c1=O | 852 nM | – | – | –
40 | O=C(O)CN1CC2CN(c3nc4ccccc4n([C@H]4C[C@H]5CC[C@@H](C4)N5C4CCCCCCC4)c3=O)CC2C1 (stereo partly specified) | – | – | 15.8 nM | –
41 | COc1ccc(Nc2nc3ccccc3n(C3CCN(C4CCCCCCC4)CC3)c2=O)cn1 | 46.3 nM | – | – | –
42 | O=C1NC(=O)C2(CCN(c3nc4ccccc4n([C@H]4C[C@H]5CC[C@@H](C4)N5C4CCCCCCC4)c3=O)CC2)N1 | 67 nM | – | – | –
43 | CS(=O)(=O)NC(=O)c1nc2ccccc2n(C2CCN(C3CCCCCCC3)CC2)c1=O | – | – | 375 nM | –
44 | O=c1c(N2CCc3ccccc32)nc2ccccc2n1C1CCN(C2CCCCCCC2)CC1 | 375 nM | – | – | –
45 | O=C(NO)c1nc2ccccc2n(C2CCN(C3CCCCCCC3)CC2)c1=O | 2730 nM | 5570 nM | – | –
46 | O=C(O)C1(Nc2nc3ccccc3n([C@H]3C[C@H]4CC[C@@H](C3)N4C3CCCCCCC3)c2=O)CCCCC1 | – | – | 237 nM | –
47 | CC(=O)NC1CCN(c2nc3ccccc3n(C3CCN(C4CCCCCCC4)CC3)c2=O)CC1 | – | – | 60.8 nM | –
48 | O=C(O)c1nc2ccccc2n([C@H]2C[C@H]3CC[C@@H](C2)N3C2CCCCCCCCC2)c1=O | – | – | 2.5 nM | –
49 | O=C(O)Cc1nc2ccccc2n([C@H]2C[C@H]3CCC[C@@H](C2)N3C2CCCCCCC2)c1=O | 19200 nM | 12800 nM | 189 nM | 35600 nM
50 | CC(C)(Nc1nc2ccccc2n([C@H]2C[C@H]3CC[C@@H](C2)N3C2CCCCCCC2)c1=O)C(=O)O | 890 nM | 8900 nM | – | –
